Assay results taken from US8431704B2, “Quinoline or isoquinoline substituted P2X7 antagonists” (Janssen Pharmaceutica NV, priority 2008, dated 2013).

Amino acid sequences for entries named in this document (tags omitted).
UniProt Q99572, whole entry: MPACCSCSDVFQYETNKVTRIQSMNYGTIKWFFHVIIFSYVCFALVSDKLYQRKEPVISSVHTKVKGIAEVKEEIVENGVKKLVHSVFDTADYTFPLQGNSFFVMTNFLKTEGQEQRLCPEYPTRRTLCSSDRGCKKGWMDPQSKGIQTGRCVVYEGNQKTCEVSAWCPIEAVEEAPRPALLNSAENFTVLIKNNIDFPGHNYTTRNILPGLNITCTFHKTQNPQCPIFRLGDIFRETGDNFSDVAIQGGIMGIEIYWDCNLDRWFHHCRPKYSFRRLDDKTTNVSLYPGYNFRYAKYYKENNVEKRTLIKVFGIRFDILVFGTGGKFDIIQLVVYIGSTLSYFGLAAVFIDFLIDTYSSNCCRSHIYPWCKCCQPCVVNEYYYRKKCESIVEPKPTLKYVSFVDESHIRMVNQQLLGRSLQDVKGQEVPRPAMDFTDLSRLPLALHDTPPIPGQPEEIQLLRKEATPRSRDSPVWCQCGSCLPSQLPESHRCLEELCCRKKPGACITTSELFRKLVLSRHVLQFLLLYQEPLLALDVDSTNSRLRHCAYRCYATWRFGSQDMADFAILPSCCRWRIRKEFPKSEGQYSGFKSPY

Target: P2X7 (Homo sapiens, UniProt Q99572)
Assay: THP-1 YoPro uptake assay (BzATP-stimulated Yo-Pro-1 uptake)
Details: Table F-10, THP-1 cells

mean pIC50 values for P2X7 antagonism	SMILES
7.38	O=C(NCC(c1cnc(C(F)(F)F)nc1)N1CCOCC1)c1cc(N2CC(CO)C2)nc2ccccc12 (stereo not shown)
6.47	O=C(NCC(c1cnc(C(F)(F)F)nc1)N1CCOCC1)c1cccc2c(NCCO)nccc12 (stereo not shown)
6.86	O=C(NCC(c1cnc(C(F)(F)F)nc1)N1CCC(F)(F)CC1)c1cccc2c(N3CCOCC3)nccc12 (stereo not shown)
8.05	CC(C)Oc1ccc2c(C(=O)NCC(c3cnc(C(F)(F)F)nc3)N3CCC(F)(F)CC3)c(Cl)ccc2n1 (stereo not shown)
7.86	COc1ccc2c(C(=O)NCC(c3cnc(C(F)(F)F)nc3)N3CCC(F)(F)CC3)c(Cl)ccc2n1 (stereo not shown)
7.84	O=C(NCC(c1cnc(C(F)(F)F)nc1)N1CCC(F)(F)CC1)c1c(F)ccc2ncccc12 (stereo not shown)
8.20	NCCCOc1ccc2c(C(=O)NCC(c3cnc(C(F)(F)F)nc3)N3CCC(F)(F)CC3)c(Cl)ccc2n1 (stereo not shown)
7.25	O=C(NCC(c1cnc(C(F)(F)F)nc1)N1CCC(F)(F)CC1)c1ccnc2ccccc12 (stereo not shown)
5.94	O=C(NCC(c1cnc(C(F)(F)F)nc1)N1CCOCC1)c1cccc2c(N3CCOCC3)nccc12 (stereo not shown)
7.64	O=C(NCC(c1cnc(C(F)(F)F)nc1)N1CCC(F)(F)CC1)c1c(Cl)ccc2ncccc12 (stereo not shown)

Same assay, conditions: Table F-10, THP-1 cells, tested form: TFA

mean pIC50 values for P2X7 antagonism	SMILES
8.65	O=C(NCC(c1cnc(N2CCC2)nc1)N1CCC(F)(F)CC1)c1c(Cl)ccc2ncccc12 (stereo not shown)
6.63	O=C(NCC(c1cnc(C(F)(F)F)nc1)N1CCC(F)(F)CC1)c1c(Cl)ccc2nc(OC3CNC3)ccc12 (stereo not shown)
8.45	O=C(NCC(c1cnc(C(F)(F)F)nc1)N1CCOCC1)c1c(Cl)ccc2nc(OCc3cccnc3)ccc12 (stereo not shown)
7.51	O=C1CC[C@@H](COc2ccc3c(C(=O)NCC(c4cnc(C(F)(F)F)nc4)N4CCOCC4)c(Cl)ccc3n2)N1 (stereo partly shown)
7.90	CC(C)CN1CCN(c2ncc(C(CNC(=O)c3c(Cl)ccc4ncccc34)N3CCC(F)(F)CC3)cn2)CC1 (stereo not shown)
6.63	CN1CCN(c2ncc(C(CNC(=O)c3c(Cl)ccc4ncccc34)N3CCC(F)(F)CC3)cn2)CC1 (stereo not shown)
8.43	Cc1ccc2nc(NCCO)ccc2c1C(=O)NCC(c1cnc(C(F)(F)F)nc1)N1CCC(F)(F)CC1 (stereo not shown)
8.36	Cc1ccc2nc(N3CC[C@@H](O)C3)ccc2c1C(=O)NCC(c1cnc(C(F)(F)F)nc1)N1CCC(F)(F)CC1 (stereo partly shown)
7.57	O=C(NCC(c1cnc(C(F)(F)F)nc1)N1CCOCC1)c1cc(N2CC[C@@H](O)C2)nc2ccccc12 (stereo partly shown)
7.88	Cc1ccc2nc(N3CCOCC3)ccc2c1C(=O)NCC(c1cnc(C(F)(F)F)nc1)N1CCC(F)(F)CC1 (stereo not shown)
8.36	O=C(NCC(c1cnc(N2CCCCC2)nc1)N1CCC(F)(F)CC1)c1c(Cl)ccc2ncccc12 (stereo not shown)
7.59	NC(=O)C1CCN(c2ccc3c(C(=O)NCC(c4cnc(C(F)(F)F)nc4)N4CCC(F)(F)CC4)c(Cl)ccc3n2)CC1 (stereo not shown)
6.79	O=C(NCC(c1cnc(C(F)(F)F)nc1)N1CCOCC1)c1c(Cl)ccc2nc(O)ccc12 (stereo not shown)
4.90	O=C(NCC(c1cnc(N2CCNCC2)nc1)N1CCC(F)(F)CC1)c1c(Cl)ccc2ncccc12 (stereo not shown)
7.92	O=C(NCC(c1cnc(N2CCOCC2)nc1)N1CCC(F)(F)CC1)c1c(Cl)ccc2ncccc12 (stereo not shown)
7.60	O=C(NCC(c1cnc(C(F)(F)F)nc1)N1CCOCC1)c1c(Cl)ccc2nc(OCC3CCCC3)ccc12 (stereo not shown)
7.81	CN1CCC[C@@H]1COc1ccc2c(C(=O)NCC(c3cnc(C(F)(F)F)nc3)N3CCOCC3)c(Cl)ccc2n1 (stereo partly shown)
6.78	O=C(NCC(c1cnc(C(F)(F)F)nc1)N1CCCCC1)c1c(Cl)ccc2nc(O)ccc12 (stereo not shown)
6.62	O=C(NCC(c1cnc(C(F)(F)F)nc1)N1CCOCC1)c1cccc2cnccc12 (stereo not shown)
8.40	NC12CC1CN(c1ccc3c(C(=O)NCC(c4cnc(C(F)(F)F)nc4)N4CCOCC4)c(Cl)ccc3n1)C2 (stereo not shown)
8.14	Nc1ccc2c(C(=O)NCC(c3cnc(C(F)(F)F)nc3)N3CCOCC3)c(Cl)ccc2n1 (stereo not shown)
7.50	O=C(NCC(c1cnc(C(F)(F)F)nc1)N1CCOCC1)c1c(Cl)ccc2nc(OCC3CCCO3)ccc12 (stereo not shown)
7.31	CC(C)CCOc1ccc2c(C(=O)NCC(c3cnc(C(F)(F)F)nc3)N3CCOCC3)c(Cl)ccc2n1 (stereo not shown)
6.51	O=C(NCC(c1cnc(NCCO)nc1)N1CCC(F)(F)CC1)c1c(Cl)ccc2ncccc12 (stereo not shown)
4.67	COc1ccc2ncccc2c1C(=O)NCC(c1cnc(C(F)(F)F)nc1)N1CCOCC1 (stereo not shown)
8.24	Cc1ccc2nc(N3CCN(C)CC3)ccc2c1C(=O)NCC(c1cnc(C(F)(F)F)nc1)N1CCC(F)(F)CC1 (stereo not shown)
7.31	O=C(NCC(c1cnc(C(F)(F)F)nc1)N1CCOCC1)c1c(Cl)ccc2nc(OCCC(F)(F)F)ccc12 (stereo not shown)
8.21	O=C(NCC(c1cnc(N2CCCC2)nc1)N1CCC(F)(F)CC1)c1c(Cl)ccc2ncccc12 (stereo not shown)
7.61	O=C(NCC(c1cnc(C(F)(F)F)nc1)N1CCOCC1)c1cc(N2CCNCC2)nc2ccccc12 (stereo not shown)

SMILES	mean pIC50 values for P2X7 antagonism
O=C(NCC(c1cnc(C(F)(F)F)nc1)N1CCOCC1)c1c(Cl)ccc2nc(NC[C@H](O)CO)ccc12 (stereo partly shown)	7.47
